Experiments:
[1] = target: GABAA receptor (α1, β2, and γ2s subunits, HEK-GABA) (Rattus norvegicus, UniProt P18508+P62813+P63138); assay type: cell-based
[2] = target: α1, β2, and γ2s subunits of the rat GABAA receptors (HEK-GABA cells) (Rattus norvegicus, UniProt P18508+P62813+P63138); experiment: QP-DHM modulator mode; assay type: cell-based; conditions: maximum concentration of compound, with GABA at EC30, Fig. 3D

Protein sequences, listed by entry. Tags and fused reporters are not part of them. Residues count along the entry.
UniProt P18508, 39-466: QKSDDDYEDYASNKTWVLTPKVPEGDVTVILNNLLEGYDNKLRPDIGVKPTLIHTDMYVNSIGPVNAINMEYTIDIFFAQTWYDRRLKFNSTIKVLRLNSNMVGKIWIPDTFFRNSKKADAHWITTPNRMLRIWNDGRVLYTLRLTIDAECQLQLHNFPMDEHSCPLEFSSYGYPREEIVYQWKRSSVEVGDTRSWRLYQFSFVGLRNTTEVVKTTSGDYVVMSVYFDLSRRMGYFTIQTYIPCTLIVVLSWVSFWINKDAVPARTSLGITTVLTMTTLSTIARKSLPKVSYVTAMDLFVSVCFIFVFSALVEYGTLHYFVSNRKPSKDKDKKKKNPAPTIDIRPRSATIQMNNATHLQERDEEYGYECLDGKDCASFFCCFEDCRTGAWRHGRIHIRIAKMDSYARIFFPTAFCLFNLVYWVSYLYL
UniProt P62813, 28-455: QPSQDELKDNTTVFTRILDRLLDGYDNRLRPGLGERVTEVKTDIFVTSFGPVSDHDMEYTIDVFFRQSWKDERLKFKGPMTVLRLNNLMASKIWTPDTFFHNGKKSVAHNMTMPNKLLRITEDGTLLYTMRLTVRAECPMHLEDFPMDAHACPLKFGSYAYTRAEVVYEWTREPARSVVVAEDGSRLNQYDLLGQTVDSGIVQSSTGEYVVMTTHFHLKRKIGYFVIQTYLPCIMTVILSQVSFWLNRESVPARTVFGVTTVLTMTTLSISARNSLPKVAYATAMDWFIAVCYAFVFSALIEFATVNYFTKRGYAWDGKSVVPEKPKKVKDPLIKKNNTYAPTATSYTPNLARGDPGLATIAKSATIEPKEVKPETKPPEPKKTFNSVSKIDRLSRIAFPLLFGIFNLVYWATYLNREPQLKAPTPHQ
UniProt P63138, 25-474 limits assumed: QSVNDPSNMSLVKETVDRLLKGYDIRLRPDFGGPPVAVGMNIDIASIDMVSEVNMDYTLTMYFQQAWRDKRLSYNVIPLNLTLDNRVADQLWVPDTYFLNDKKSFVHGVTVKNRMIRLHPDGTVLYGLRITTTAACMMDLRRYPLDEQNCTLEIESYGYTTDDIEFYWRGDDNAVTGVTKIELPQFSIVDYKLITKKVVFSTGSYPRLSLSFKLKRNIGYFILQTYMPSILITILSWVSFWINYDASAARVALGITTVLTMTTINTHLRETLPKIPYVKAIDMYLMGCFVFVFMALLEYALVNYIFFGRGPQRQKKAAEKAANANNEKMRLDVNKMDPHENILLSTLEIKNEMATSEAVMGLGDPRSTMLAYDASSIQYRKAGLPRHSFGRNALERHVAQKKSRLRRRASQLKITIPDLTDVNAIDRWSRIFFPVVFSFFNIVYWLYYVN

Compound: COc1cc2c(c(OC)c1OC)-c1ccc(OC)c(=O)cc1[C@@H](NC(C)=O)CC2 [Colchicine]
- outcome of hits validation (activity and specificity for the GABAA receptor) [1]: marginal effect
- effect of GABA increased to % of the maximum (GABA at 10 µM) [2]: 21%
